Source: US11773129B2, “Methods of preventing or treating atherosclerosis with inhibitors of specific isoenzymes of human neuraminidase” (THE GOVERNORS OF THE UNIVERSITY OF ALBERTA, priority 2017, dated 2023)

Experiments:
NEU4 [1] = target: T1, NEU4 (Homo sapiens, UniProt Q8WWR8)
T1 sequence (Q8WWR8 1-484): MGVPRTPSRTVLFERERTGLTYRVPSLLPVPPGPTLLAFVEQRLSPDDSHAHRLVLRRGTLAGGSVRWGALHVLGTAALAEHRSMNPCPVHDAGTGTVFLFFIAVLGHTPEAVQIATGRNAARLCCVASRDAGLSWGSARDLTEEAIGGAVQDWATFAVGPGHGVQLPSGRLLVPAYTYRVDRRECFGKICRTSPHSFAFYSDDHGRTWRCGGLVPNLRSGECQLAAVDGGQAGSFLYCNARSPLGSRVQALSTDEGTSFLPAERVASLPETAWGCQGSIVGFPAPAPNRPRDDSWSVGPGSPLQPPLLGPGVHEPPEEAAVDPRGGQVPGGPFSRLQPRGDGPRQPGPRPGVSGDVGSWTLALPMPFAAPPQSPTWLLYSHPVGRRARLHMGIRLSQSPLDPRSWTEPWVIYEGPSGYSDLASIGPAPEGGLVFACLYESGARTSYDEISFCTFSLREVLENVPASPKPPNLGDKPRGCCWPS

NEU4 [2] = target: T1, NEU4; test: Inhibition of GM3 cleavage, NEU4; conditions: read-out: IC50 NEU4, inhibition of GM3 cleavage; GM3 500 μM, pH 4.5
NEU1 = target: T2, NEU1 (Homo sapiens, UniProt Q99519); test: IC50 inhibition assay using 4MU-NANA as the substrate, NEU1; assay type: biochemical
T2 construct: made in house; host or cells: HEK293 (lentiviral transduction), crude lysate

| IC50 (NEU1) | SMILES | Ki (NEU4 [1]) | IC50 (NEU4 [2]) |
| --- | --- | --- | --- |
| – | CC(=O)N[C@H]1[C@H]([C@H](O)[C@H](O)CO)OC(C(=O)O)=C[C@@H]1NC(=N)N [compound 6, zanamivir, reference compound] | 26 ± 4 µM | – |
| – | CC(=O)N[C@H]1[C@H]([C@H](O)[C@H](O)CO)OC(C(=O)O)=C[C@@H]1O [DANA, 2-deoxy-2,3-didehydro-N-acetylneuraminic acid, reference compound] | 5.8 ± 0.6 µM | 26 ± 8 µM |
| 250 ± 60 µM | CC(=O)N[C@@H]1C(O)C=C(C(=O)O)OC1C(O)C(O)CNC(=O)C(C)C (stereo partly drawn) [compound 53, 5-Acetamido-9-isobutyramido-2,6-anhydro-3,5-dideoxy-D-glycero-D-galacto-non-2-enonic acid] | – | – |
